Test results as given in patent publication US4323517A, “Methoxy and methylsulfinylthiolesters” (Troponwerke GmbH & Co. KG, priority 1977, dated 1982).

Test system: kaolin oedema
Test: comparison of the therapeutic range
Settings: rats, oral

Question: Which “Therapeutic range ED50 ulcer / ED50 kaolin oedema” value does the source give for CCCCC1C(=O)N(c2ccccc2)N(c2ccccc2)C1=O [Phenylbutazone] here?
Answer: 1.48
